# Measured values taken from patent publication US10736859B2, “Eutectic formulations of cyclobenzaprine hydrochloride and amitriptyline hydrochloride” (Tonix Pharma Holdings Limited, priority 2013, dated 2020).
# Assay: DSC, FT-IR/ATR and XRPD compatibility of Cyclobenzaprine HCl with additional excipients, mixed (A) and milled (B) 1:1 mixtures (Example 2)
# Assay type: physicochemical
# Settings: for Interactions between Cyclobenzaprine HCl and excipients, Mixture 1:1 (mixed): mixture A, mechanical mixing only; for Interactions between Cyclobenzaprine HCl and excipients, Mixture 1:1 (mixed) / Interactions between Cyclobenzaprine HCl and excipients, Mixture 1:1 (milled): DSC; for Interactions between Cyclobenzaprine HCl and excipients, Mixture 1:1 (milled): mixture B, ground in agate mortar
# Method: As described above, thermal analytical techniques were further used to assess the compatibility of a drug product (tablet) containing Cyclobenzaprine HCl (API). The compatibility assessment was carried out between the API and additional excipients in a 1:1 ratio. The 1:1 API-excipient mixtures were formed in two different ways: first, by mixing only, and second, by strong milling in an agate mortar. The thermal behavior recorded in the two different mixtures were compared with those of the single components. On the basis of thermal events recorded for each component and for the mixtures, the analyses were carried out by investigating the meanings of the peaks recorded by differential scanning calorimetry (DSC) in mixtures between the API and the excipients. Furthermore, in order to define the nature of the interaction, the Fourier Transformate Infra Red Spectroscopy with Total Attenuated Reflectance (FT-IR/ATR) and X-ray powder diffraction (XRPD) of some samples (API, excipient, and mixed and milled mixtures) was carried out and compared.
# Aliquots of API and each excipient were weighed in a ratio of 1:1 and ground in an agate mortar. Then, the homogeneous mixtures were analyzed. These sample mixtures were labeled “B”, while the mechanical-only mixtures were labeled “A.”
# The DSC heating curves were obtained by TA 821 DSC Mettler instrument under the following conditions: • Heating rate: 10° C./min • Ambient: Nitrogen 30 mL/min • Sample holder: normal open aluminum pan • Temperature range: from 25° C. to 250° C. • Instrument calibration: Indium sample purity 99.999% Fourier Transformate Infra Red Spectroscopy with Total Attenuated Reflectance (FT-IR/ATR)
# The FT-IR spectra were collected with a Perkin Elmer spectrum Two instrument with air as background and 4 cm^−1 resolution.
# X-ray powder diffraction (XRPD) tests were performed with the ULTIMA IV instrument (Rigaku), laying the sample on a static sample holder. The X-ray focusing slit has a variable width, interlocked with the q value. The X-ray tube has a Copper target, with a current intensity of 40 mA and a voltage of 40 kV. Radiation was generated by the Cockcroft-Walton method, and was constituted by Kα1 (1.540562 Å) and Kα2 (1.544398 Å). The analytical conditions were: • Fixed Time; sampling width 0.02 deg, scanning rate 1.3 s/step, 2 q range 3.35 deg and sample holder; amorphous glass equiangular 9200/2G, 0.2 mm deep. The sample was pressed with a glass plate.
# [1] = listed as Disodium Glycine carbonate
substance,measurement,setting,value
Disodium Glycine Carbonate [Di Sodium Glycine carbonate],Chemical acid-base reaction by FT-IR/ATR,"mixture A 1:1 with Cyclobenzaprine HCl, room temperature, chlorohydrate band 3000-2000 cm-1",no chemical acid-basis reaction occurred
same,"Interactions between Cyclobenzaprine HCl and excipients, Mixture 1:1 (mixed)",,Physical
same,"Interactions between Cyclobenzaprine HCl and excipients, Mixture 1:1 (mixed)",[1],physical complex melting at a lower temperature
same,"Interactions between Cyclobenzaprine HCl and excipients, Mixture 1:1 (milled)",,Physical
same,"Interactions between Cyclobenzaprine HCl and excipients, Mixture 1:1 (milled)",[1],physical complex melting at a lower temperature
